Among the data in patent publication US6670364B2, “Antagonists of MCP-1 function and methods of use thereof” (Telik, Inc., priority 2001, dated 2003) are IC50 values, retold here.

The chains behind the UniProt entries cited, without tags or fusion partners. Residues count along the entry.
UniProt P13500, 24-99 limits assumed: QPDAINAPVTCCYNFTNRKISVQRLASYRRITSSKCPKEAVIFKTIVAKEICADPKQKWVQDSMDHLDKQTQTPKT

The target in this experiment is hMCP-1 (Homo sapiens, UniProt P13500). The experiment is described as follows: Inhibition of MCP-1-induced chemotaxis (48-well chamber, Example 21). The conditions noted are these: read-out: IC50 (μM), MCP-1-induced chemotaxis; THP-1 cells, 2.5 nM hMCP-1, 48-well chamber, 2 hr; tested form: hydrochloride. The method, then: A 48-well microchemotaxis chamber with a 5 μm-pore size, PVP-coated polycarbonate filter membrane (Neuro Probe Inc., Cabin John, Md.) was used for testing. Compounds were prepared as 10 mM stock solution in DMSO. THP-1 cells were washed with RPMI 1640 medium supplemented with 0.5% BSA and 25 mM HEPES, pH 7.4, and suspended at a density of 4×10^6 cells/mL in the same medium. A 150 μL aliquot of this suspension was treated with an equal volume of test compound solution and the mixture incubated at 37° C. for 15 min. The lower chamber was loaded with 26 μL of a 2.5 nM solution of hMCP-1 (PeproTech) in medium. The filter membrane was placed over the lower chamber, followed by a silicon rubber gasket and the upper chamber. A 50 μL aliquot of the THP-1 cell suspension containing the test compound was added to the upper chamber and the assembly incubated in a 5% CO2 atmosphere at 37+ C. for 2 hr. The chamber was then disassembled and the cells remaining on the upper surface of the filter were scrapped off with a rubber scrapper. The filter was fixed with methanol, stained with Diff-Quik solution, and mounted on a slide glass. The cells that had migrated across the filter onto the lower surface were then counted by microscopic observation.
The term IC50 denotes the point on the concentration scale where inhibition reaches its midpoint. For `Cc1nn(C)c2ncc(C(=O)NC(=O)Nc3ccc(F)c(C(F)(F)F)c3)c(N3CCN(CCO)CC3)c12`, the IC50 was found to be 2 µM.
Under `Cc1nn(C)c2ncc(C(=O)NC(=O)Nc3cccc(-c4nccs4)c3)c(N3CCN(C)CC3)c12` [Compound 78] stands 3 µM; under `Cc1nn(C)c2ncc(C(=O)NC(=O)Nc3ccc(O)c(C(F)(F)F)c3)c(N3CCN(C)CC3)c12` [Compound 87], 4 µM; under `Cc1nn(C)c2ncc(C(=O)NC(=O)Nc3cc(O)cc(C(F)(F)F)c3)c(N3CCN(C)CC3)c12` [Compound 89], 4 µM.
As for `Cc1nn(C)c2ncc(C(=O)NC(=O)Nc3ccc(F)c(C(F)(F)F)c3)c(NCC34CCCN3CCC4)c12`, the concentration for half-maximal inhibition (IC50) amounted to 10 µM.
The value for `Cc1nn(C)c2ncc(C(=O)NC(=O)Nc3ccc(F)c(C(F)(F)F)c3)c(N3CCN(Cc4ccccc4)CC3)c12` was 2 µM; that for `Cc1nn(C)c2ncc(C(=O)NC(=O)Nc3ccc(F)c(C(F)(F)F)c3)c(NCCCN(C)C)c12` was 10 µM.
The value for `Cc1nn(C)c2ncc(C(=O)NC(=O)Nc3ccc(F)c(C(F)(F)F)c3)c(N3CCC(N(C)C)C3)c12` (centres unmarked) was 1.2 µM.
The value for `Cc1nn(C)c2ncc(C(=O)NC(=O)Nc3ccc(F)c(C(F)(F)F)c3)c(NC3CCC(N)CC3)c12` (centres unmarked) was 0.4 µM; that for `Cc1nn(C)c2ncc(C(=O)NC(=O)Nc3ccc(F)c(C(F)(F)F)c3)c(N(C)CCN(C)C)c12` was 2 µM; that for `Cc1nn(C)c2ncc(C(=O)NC(=O)Nc3ccc(F)c(C(F)(F)F)c3)c(N(C)C3CCN(C)C3)c12` (centres unmarked) was 0.4 µM.
